Results as given in patent US11066414B2, “Cot modulators and methods of use thereof” (Gilead Sciences, Inc., priority 2015, dated 2021).
Read-outs that look alike come from different tables or passages of the source.

Sequences of proteins named here, by UniProt entry; tags and fusion partners are left off. Residues count along the entry.
UniProt P41279, 30-397 limits assumed: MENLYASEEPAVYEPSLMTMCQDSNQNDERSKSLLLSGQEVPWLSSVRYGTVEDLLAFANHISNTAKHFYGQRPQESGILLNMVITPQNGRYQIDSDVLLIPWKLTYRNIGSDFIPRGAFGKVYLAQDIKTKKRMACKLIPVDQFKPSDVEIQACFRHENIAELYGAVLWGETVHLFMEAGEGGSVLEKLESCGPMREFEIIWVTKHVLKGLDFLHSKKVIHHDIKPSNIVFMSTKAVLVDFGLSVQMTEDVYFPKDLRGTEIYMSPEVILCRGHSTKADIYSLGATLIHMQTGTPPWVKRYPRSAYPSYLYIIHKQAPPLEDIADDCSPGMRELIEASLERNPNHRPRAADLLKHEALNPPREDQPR

Tests used:
TNFα = assay: Cot Monocyte TNFα Cell Based Assay; settings: read-out: EC50 TNF, LPS-stimulated human monocytes
Human Cot = Human Cot (Homo sapiens (Human), UniProt P41279); assay: High Throughput Cot Biochemical Assay; settings: read-out: IC50 HTRF
[1] = Cot HTRF (TR-FRET) biochemical assay
[2] = TNFα TR-FRET, tested form: TFA salt

Row | SMILES | EC50 (TNFα; TNFα) | IC50 (Human Cot; [1]) | EC50 (TNFα; [2]) | IC50 (Human Cot; Cot HTRF (TR-FRET KinEASE) biochemical assay, 400 μM ATP, tested form: TFA salt)
1 | [2H][C@@](Nc1cc(Cl)c2ncc(C#N)c(N[C@H](CC)c3ccccc3)c2c1)(c1cn(C2CC2)nn1)c1ccc(F)nc1C | 0.056 µM | 0.002 µM | – | –
2 | CC(C)n1cc([C@@H](Nc2cc(Cl)c3ncc(C#N)c(Nc4ccc(F)c(Cl)c4)c3c2)c2ccc(Cl)nc2Cl)nn1 | 0.565 µM | – | – | –
3 | CC(C)(C)CNc1c(C#N)cnc2c(Cl)cc(N[C@H](c3cn(C45CC(C4)C5)nn3)c3cccc4ncccc34)cc12 | 0.039 µM | – | – | –
4 | [2H][C@](Nc1cc(Cl)c2ncc(C#N)c(NCC(C)(C)C)c2c1)(c1cn(C2(C(F)F)CC2)nn1)c1cccnc1Cl | 0.222 µM | 0.005 µM | – | –
5 | [2H][C@@](Nc1cc(Cl)c2ncc(C#N)c(NCC(C)(C)C)c2c1)(c1cn(C2CC2)nn1)c1cccnc1C | 0.097 µM | 0.004 µM | – | –
6 | N#Cc1cnc2c(Cl)cc(N[C@H](c3cn(CCO)nn3)c3cc(Br)cnc3Cl)cc2c1Nc1ccc(F)c(Cl)c1 | – | 0.015 µM | – | –
7 | [2H][C@](Nc1cc(Cl)c2ncc(C#N)c(NCC(C)(C)C)c2c1)(c1cn(C2(C(F)F)CC2)nn1)c1cccnc1C | 0.087 µM | 0.002 µM | – | –
8 | N#Cc1cnc2c(Cl)cc(N[C@H](c3cn(C4COC4)nn3)c3cnc(Cl)cc3Cl)cc2c1Nc1ccc(F)c(Cl)c1 | 0.666 µM | 0.086 µM | – | –
9 | CC(C)(C)N1CCC(n2cc([C@@H](Nc3cc(Cl)c4ncc(C#N)c(Nc5ccc(F)c(Cl)c5)c4c3)c3cnc(Cl)cc3Cl)nn2)CC1 | 3.75 µM | – | – | –
10 | CC(C)(C)CNc1c(C#N)cnc2c(C#N)cc(N[C@H](c3cn(C45CC(C4)C5)nn3)c3cccc4ncccc34)cc12 | 0.011 µM | – | – | –
11 | [2H][C@](Nc1cc(Cl)c2ncc(C#N)c(N[C@@H](CCC#N)c3ccccc3)c2c1)(c1ccc(F)nc1)c1cn(C2CC2)nn1 | 0.59 µM | – | – | –
12 | CC(C)(C)CNc1c(C#N)cnc2c(C#N)cc(N[C@H](c3cn(C45CC(C4)C5)nn3)c3cccc4cnccc34)cc12 | 0.014 µM | – | – | –
13 | [2H][C@@](Nc1cc(Cl)c2ncc(C#N)c(Nc3cnc(F)c(F)c3)c2c1)(c1c[nH]nn1)c1cccnc1C | 1.14 µM | – | – | –
14 | CC(C)(C)CNc1c(C#N)cnc2c(C#N)cc(N[C@H](c3cn(C(C)(C)C(F)F)nn3)c3cccc4cnccc34)cc12 | 0.061 µM | – | – | –
15 | CC(C)n1cc([C@@H](Nc2cc(Cl)c3ncc(C#N)c(Nc4ccc(F)c(Cl)c4)c3c2)c2cnc(Cl)cc2Cl)nn1 | 1.1 µM | – | – | –
16 | [2H][C@](Nc1cc(Cl)c2ncc(C#N)c(N[C@H](CCO)c3ccccc3)c2c1)(c1cccnc1)c1cn(C2CC2)nn1 | 0.147 µM | 0.006 µM | – | –
17 | [2H][C@](Nc1cc(Cl)c2ncc(C#N)c(NCC(C)(C)C)c2c1)(c1cn(C2(C(F)F)CC2)nn1)c1cccnc1F | 0.277 µM | 0.005 µM | – | –
18 | [2H][C@@](Nc1cc(Cl)c2ncc(C#N)c(N[C@H](CC)c3ccccc3)c2c1)(c1cn(C2CC2)nn1)c1cccnc1C | 0.077 µM | 0.002 µM | – | –
19 | Cc1nc(F)ccc1[C@H](Nc1cc(Cl)c2ncc(C#N)c(NCC(C)(C)C)c2c1)c1nnn2c1CCCC2 | – | – | 0.169 µM | 0.01 µM
20 | CC(C)(C)OC(=O)N1CCC(n2cc([C@@H](Nc3cc(Cl)c4ncc(C#N)c(Nc5ccc(F)c(Cl)c5)c4c3)c3cccs3)nn2)CC1 | – | 0.282 µM | – | –
21 | [2H][C@@](Nc1cc(Cl)c2ncc(C#N)c(Nc3cnc(F)c(F)c3)c2c1)(c1cn(C2CC2)nn1)c1cccnc1C | 0.174 µM | 0.005 µM | – | –
22 | [2H][C@@](Nc1cc(Cl)c2ncc(C#N)c(N[C@H](CC)c3ccccc3)c2c1)(c1c[nH]nn1)c1cccnc1C | 0.221 µM | 0.004 µM | – | –
23 | CC(C)(C)CNc1c(C#N)cnc2c(Cl)cc(N[C@H](c3cn(C(C)(C)C(F)F)nn3)c3cccc4cnccc34)cc12 | 0.283 µM | 0.035 µM | – | –
24 | [2H][C@](Nc1cc(Cl)c2ncc(C#N)c(N[C@H](CCC#N)c3ccccc3)c2c1)(c1ccc(F)nc1)c1cn(C2CC2)nn1 | 0.037 µM | 0.002 µM | – | –
25 | CC(C)(C)CNc1c(C#N)cnc2c(Cl)cc(N[C@H](c3cn(C(C)(C)CF)nn3)c3cccc4cnccc34)cc12 | 0.101 µM | 0.014 µM | – | –
26 | CC(C)(C)CNc1c(C#N)cnc2c(C#N)cc(N[C@H](c3cn(C(C)(C)C(F)F)nn3)c3cccc4ncccc34)cc12 | – | – | 0.056 µM | –
27 | CC(C)(C)CNc1c(C#N)cnc2c(Cl)cc(N[C@H](c3cn(C45CC(C4)C5)nn3)c3cccc4cnccc34)cc12 | 0.039 µM | – | – | –
